Sequences of proteins named here, by UniProt entry; tags and fusion partners are left off. A change or cut given only in a name is not applied to a line headed by its entry.
UniProt P43490: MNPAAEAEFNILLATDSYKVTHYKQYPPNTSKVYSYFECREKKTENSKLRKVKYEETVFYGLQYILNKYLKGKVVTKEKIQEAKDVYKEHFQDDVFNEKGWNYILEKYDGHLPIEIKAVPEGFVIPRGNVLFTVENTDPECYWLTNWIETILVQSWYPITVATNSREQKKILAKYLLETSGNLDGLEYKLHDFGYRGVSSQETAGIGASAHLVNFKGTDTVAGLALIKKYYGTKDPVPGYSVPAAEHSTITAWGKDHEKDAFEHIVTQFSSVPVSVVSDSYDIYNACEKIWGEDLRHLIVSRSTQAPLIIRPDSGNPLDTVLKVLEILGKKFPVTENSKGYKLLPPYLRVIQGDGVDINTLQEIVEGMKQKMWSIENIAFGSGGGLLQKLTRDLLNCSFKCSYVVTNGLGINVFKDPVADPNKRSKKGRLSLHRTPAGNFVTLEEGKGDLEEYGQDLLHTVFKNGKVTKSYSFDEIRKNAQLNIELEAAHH

These molecules were tested against NAMPT (Homo sapiens (Human), UniProt P43490). Conditions: read-out: TR-FRET Binding IC50 (μM) probe 1.
Molecule O=C(NCCc1c[nH]cn1)c1ccc(NC(=O)N2Cc3ccccc3C2)cc1 [Example 171, N-(4-{[2-(1H-imidazol-4-yl)ethyl]carbamoyl}phenyl)-1,3-dihydro-2H-isoindole-2-carboxamide] has an IC50 of 0.11 µM.
Molecule O=C(NC1CC1)c1ccc(NC(=O)N2Cc3ccccc3C2)cc1 [Example 226, N-[4-(cyclopropylcarbamoyl)phenyl]-1,3-dihydro-2H-isoindole-2-carboxamide] has an IC50 of 0.339 µM.
With O=C(Nc1ccc(C2=CCNCC2)cc1)N1Cc2ccccc2C1 [Example 318, N-[4-(1,2,3,6-tetrahydropyridin-4-yl)phenyl]-1,3-dihydro-2H-isoindole-2-carboxamide] the IC50 was 0.249 µM.
With O=C(NCCc1ccc(F)cc1)c1ccc(NC(=O)N2Cc3ccccc3C2)cc1 [Example 129, N-(4-{[2-(4-fluorophenyl)ethyl]carbamoyl}phenyl)-1,3-dihydro-2H-isoindole-2-carboxamide] the IC50 was 0.0567 µM.
Molecule O=C(Nc1ccc(-c2cncc3ccccc23)cc1)N1Cc2ccccc2C1 [Example 375, N-[4-(isoquinolin-4-yl)phenyl]-1,3-dihydro-2H-isoindole-2-carboxamide] has an IC50 of 0.595 µM.
COCCN1CCN(C(=O)c2ccc(NC(=O)N3Cc4ccccc4C3)cc2)CC1 [Example 438, N-(4-{[4-(2-methoxyethyl)piperazin-1-yl]carbonyl}phenyl)-1,3-dihydro-2H-isoindole-2-carboxamide] showed an IC50 of 0.6 µM.
CCCCCCC(=O)Nc1ccc(NC(=O)N2Cc3ccccc3C2)cc1 [Example 306, N-[4-(heptanoylamino)phenyl]-1,3-dihydro-2H-isoindole-2-carboxamide] was tested, and the IC50 was 0.0133 µM.
O=C(Nc1ccc(C(=O)N2CCN(c3nccc4occc34)CC2)cc1)N1Cc2ccccc2C1 [Example 6, N-(4-{[4-(furo[3,2-c]pyridin-4-yl)piperazin-1-yl]carbonyl}phenyl)-1,3-dihydro-2H-isoindole-2-carboxamide] showed an IC50 of 0.00425 µM.
O=C(Nc1ccc(C(=O)N2CCN(C3CCCCC3)CC2)cc1)N1Cc2ccccc2C1 [Example 206, N-{4-[(4-cyclohexylpiperazin-1-yl)carbonyl]phenyl}-1,3-dihydro-2H-isoindole-2-carboxamide] gave an IC50 of 0.216 µM.
O=C(Nc1ccc2c(c1)OCO2)c1ccc(NC(=O)N2Cc3ccccc3C2)cc1 [Example 153, N-[4-(1,3-benzodioxol-5-ylcarbamoyl)phenyl]-1,3-dihydro-2H-isoindole-2-carboxamide] gave an IC50 of 0.0799 µM.
CCCNC(=O)c1ccc(NC(=O)N2Cc3ccc(C(=O)NCCOC)cc3C2)cc1 [Example 442, N^5-(2-methoxyethyl)-N^2-{4-[(propylamino)carbonyl]phenyl}-1,3-dihydro-2H-isoindole-2,5-dicarboxamide] was tested, and the IC50 was 0.0492 µM.
Molecule O=C(CCNC(=O)N1Cc2ccccc2C1)N1CCN(c2ccccn2)CC1 [Example 364, N-{3-oxo-3-[4-(pyridin-2-yl)piperazin-1-yl]propyl}-1,3-dihydro-2H-isoindole-2-carboxamide] has an IC50 of 6.48 µM.
With CC(C)CCNC(=O)c1ccc(NC(=O)N2Cc3ccncc3C2)cc1 [Example 290, N-{4-[(3-methylbutyl)carbamoyl]phenyl}-1,3-dihydro-2H-pyrrolo[3,4-c]pyridine-2-carboxamide] the IC50 was 0.0104 µM.
O=C(NCCCc1ccccc1)c1ccc(NC(=O)N2Cc3ccc(F)cc3C2)cc1 [Example 14, 5-fluoro-N-{4-[(3-phenylpropyl)carbamoyl]phenyl}-1,3-dihydro-2H-isoindole-2-carboxamide] gave an IC50 of 0.00888 µM.
O=C(CCC(F)(F)F)Nc1ccc(NC(=O)N2Cc3ccccc3C2)cc1 [Example 291, N-{4-[(4,4,4-trifluorobutanoyl)amino]phenyl}-1,3-dihydro-2H-isoindole-2-carboxamide] showed an IC50 of 0.0277 µM.
Work on O=C(CCCCCNC(=O)N1Cc2ccccc2C1)NCCCc1ccccc1 [Example 361, N-{6-oxo-6-[(3-phenylpropyl)amino]hexyl}-1,3-dihydro-2H-isoindole-2-carboxamide] yielded an IC50 of 0.436 µM.

From patent US9302989B2 (priority 2010, dated 2016)
